Apoferritin bind: candidate novel general anesthetic via apoferritin binding | apoferritin/1-aminoanthracene competitive binding, fluorescence | P02791 | hit rate 0.074% among 350,000 | Potency, µM (titrated, usually from 77.5 µM), for the others: at the highest dose activity change, negative = displacement, actives largely listed as inhibitors; note: potency is the fitted concentration of half-maximal effect; % is set by controls: 0 for no effect and ±100 for the full control effect; nearly all actives have a fitted effect of over 20% in size
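Read-out: endpoint 1-AMA fluorescence, excitation 380 nm and emission 535 nm, after compounds sit 10 min at room temperature with 10 uM horse-spleen apoferritin in 50% saturated 1-AMA/PBS. Values come from four-parameter Hill fits.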
p53 reactivator: restores transcriptional activity of mutant p53 | H1299 p53-A138V BP100-luciferase reporter, luminescence, 24 h | Potency, µM (top dose mostly 92.2 µM), for the others: top-dose activity change, positive = activation, most hits filed as activators | hit rate 0.063% among 320,000; note: potency is the fitted concentration of half-maximal effect; % of control where 0% means no effect; nearly all actives have a fitted effect of over 45% in size
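H1299 (p53-null), stable ts p53-A138V + BP100-Luc; 1000 cells/well, Opti-MEM/10% FBS; cpd 4 pt, 1:5; 24 h, 37 deg C, 5% CO2; detection reagent 10 min RT; luminescence.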
miR-21 reporter: raises the signal of a miR-21 reporter | AID 2288 | 340,000 tested, under 10 active | Potency, µM (series often up to 38.3 µM), without a hit: at the highest dose reporter change, positive = more light | HeLa miR-21 FLuc reporter, luciferase, 48 h; active = well fitted rising curve with a large enough effect; inconclusive = small, poorly fitted or top-dose-only effect; inactive = no such curve, though single readings can be large or run the other way;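 further: % of control where 0% means no effect; miR-21 action dims this reporter so a rising signal means less miR-21 action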
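HeLa cells stably expressing CMV-driven firefly luciferase with a downstream miR-21 binding sequence, endogenously expressing miR-21, were treated with titrations (up to about 40uM final) for 48 hours at 37 degree Celsius. Luciferase luminescence was read after lysis.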
BRCA1 expr act: BRCA1 expression activation; MCF7-BRCA1-FFLuc reporter, luminescence, 48 h; response scale: scaled: vehicle 0%, 10 µM genistein 100%; Potency, µM (top dose mostly 46.1 µM), for the others: at the highest dose activation, actives largely listed as activators; hit rate 1.1% among 380,000; note: potency is the fitted concentration of half-maximal effect; nearly all actives have a fitted effect of over 80% in size
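MCF7-BRCA1-FFLuc cells, 2000/well in phenol-red-free MEM, attached 2 h then treated 48 h at 37 C. Luciferase luminescence read 15 min after reagent; normalized to genistein maximum activation (10microM) and DMSO, concentration-response fitted.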
* marks the source's active call; other numbers are inactive results; ? = inconclusive; nt = no result given. The list is not random: actives were taken first. Their share in the collection is about 1.1%. Calls come from the whole dose curve; as a rule, active = well fitted curve in the direction sought with a large enough effect; inconclusive = small, poorly fitted or top-dose-only effect, or another doubt; inactive = no such curve, though single readings can be large; an effect the other way counts as inactive or inconclusive.

1. CCN(CC)c1ccc(/C=N/Nc2nc3ccccc3[nH]2)c(O)c1
2. C#CCn1cc(/C=N/Nc2nc3ccccc3[nH]2)c2ccccc21
3. Cc1ccc2c3c([nH]c2c1C)-c1nonc1CC3
4. CN(C)N1C(=O)C2C3C=CC(O3)C2C1=O (stereo unspecified)
5. O=C(Nc1ccccc1)c1cnc[nH]1
6. Cc1ncc(C(=O)Nc2ccccc2)[nH]1
7. COc1cc(NC(=O)C(Cc2ccccc2)NS(=O)(=O)c2cccs2)cc(OC)c1 (stereo unspecified)
8. COc1cccc(CN2C(=O)c3ccccc3C2C(=O)NCCc2ccccc2)c1 (stereo unspecified)

assay / entry,1,2,3,4,5,6,7,8
Apoferritin bind,50%,5%,6%,nt,-7%,nt,55%,-9%
p53 reactivator,18µM*,14µM*,?,nt,?,nt,nt,nt
miR-21 reporter,?,9%,-61%,nt,-26%,nt,0%,-4%
BRCA1 expr act,-63%,-50%,8.9µM*,-4%,87%,2.8µM*,-1%,nt

9. CC1CCCN(C(=S)NCCc2ccccc2)C1 (stereo unspecified)
10. S=C(NCCc1ccccc1)N1CCCC1
11. COc1cccc(/C=N/n2c(N)nc3ccccc32)c1OC
12. COc1cccc(C=NN2CCCCCC2)c1OC
13. O=C(COc1ccc(F)cc1Br)NCc1ccccn1
14. O=C(NCc1ccccn1)Nc1cccc(Cl)c1Cl
15. O=C(COc1ccccc1Br)NCc1ccccn1
16. O=C(NCc1ccccn1)Nc1ccc(Br)cc1Cl

assay / entry,9,10,11,12,13,14,15,16
Apoferritin bind,-18%,nt,46%,nt,-11%,-7%,-22%,-10%
p53 reactivator,11%,nt,17%,nt,nt,10%,6%,9%
miR-21 reporter,-41%,nt,-36%,nt,-65%,-50%,-49%,-52%
BRCA1 expr act,10µM*,85%,10µM*,11µM*,?,10µM*,11µM*,11µM*

17. O=C(NCc1ccccn1)Nc1ccc(Cl)cc1Cl
18. COc1ccc(-c2cc(C(=O)Nc3c(C)nn(Cc4ccccc4C)c3C)no2)cc1
19. Cc1ccc(NC(=O)N2CCCC2C(=O)Nc2c(C)cc(C)cc2C)cc1 (stereo unspecified)
20. O=C(Cc1ccsc1)Nc1ccc(Cl)cc1Cl
21. O=C(CSc1nnc(NC(=O)C2CC(=O)N(c3ccc(F)cc3)C2)s1)NCC1CCCO1 (stereo unspecified)
22. S=C(NCc1ccccn1)Nc1ccc(Br)cc1Cl
23. O=C(Cc1csc(NC(=O)Nc2ccc(Cl)cc2)n1)NCc1ccccn1
24. S=C(NCc1ccccn1)Nc1ccccc1Cl

assay / entry,17,18,19,20,21,22,23,24
Apoferritin bind,-3%,-7%,0%,-19%,-5%,-11%,nt,1%
p53 reactivator,?,nt,3%,-8%,-15%,1%,24%,3%
miR-21 reporter,-55%,2%,-2%,-15%,0%,-50%,nt,-43%
BRCA1 expr act,7.9µM*,nt,-1%,25%,0%,11µM*,11µM*,50%

25. O=C(Cc1csc(NC(=O)Nc2ccc(Cl)cc2)n1)NC1CCCC1
26. Cc1cc(C(=O)CSc2ncccn2)c(C)n1-c1cccc(F)c1
27. Cc1cc(C(=O)CSc2n[nH]c(N)n2)c(C)n1-c1cccc(F)c1
28. COc1ccc(-c2nnc(NC(=O)c3ccc(S(=O)(=O)N(C)CC4CCCO4)cc3)o2)c(OC)c1 (stereo unspecified)
29. COC(=O)c1sccc1NC(=S)N1CCC(C(N)=O)CC1
30. COC(=O)c1sccc1NC(=S)N1CCCCC1
31. Cc1ccc(S(=O)(=O)NCc2ccccc2)cc1C(=O)N1CCN(S(=O)(=O)c2ccccc2F)CC1
32. O=C(Nc1ccccc1)OCC1CCCN2CCCCC12 (stereo unspecified)

assay / entry,25,26,27,28,29,30,31,32
Apoferritin bind,nt,3%,-19%,-8%,-5%,40µM*,nt,-10%
p53 reactivator,22%,?,22%,-1%,0%,1%,nt,-3%
miR-21 reporter,nt,-67%,-32%,0%,-2%,-4%,nt,-9%
BRCA1 expr act,-26%,?,13µM*,-42%,20%,-20%,-22%,8%

33. CC1=CCC(COC(=O)Nc2ccccc2)CC1 (stereo unspecified)
34. NC(=O)c1c(NC(=O)c2cnccn2)sc2c1CCCC2
35. NC(=O)c1c(NC(=O)c2ccncc2)sc2c1CCCC2
36. Oc1ccc(-c2csc(Nc3ncccn3)n2)c(O)c1
37. Cc1cccnc1Nc1nc(-c2ccc(F)cc2)cs1
38. Cc1cccnc1Nc1nc(-c2ccc(O)cc2)cs1
39. CC(NC(=O)c1cc(S(=O)(=O)N2CCOCC2)ccc1F)c1ccc(-n2ccnc2)cc1 (stereo unspecified)
40. CC(=O)c1cnc(Nc2ccccc2)s1

assay / entry,33,34,35,36,37,38,39,40
Apoferritin bind,?,-13%,-17%,-2%,-8%,?,nt,-6%
p53 reactivator,?,11%,5%,0%,nt,?,-15%,12%
miR-21 reporter,-47%,-23%,-32%,-34%,-51%,-78%,nt,-40%
BRCA1 expr act,3.5µM*,7.9µM*,48%,4.5µM*,23%,4.5µM*,-5%,99%

A draw from above in order of molecular weight, rising:
33. CC1=CCC(COC(=O)Nc2ccccc2)CC1 (stereo unspecified)
35. NC(=O)c1c(NC(=O)c2ccncc2)sc2c1CCCC2
34. NC(=O)c1c(NC(=O)c2cnccn2)sc2c1CCCC2

assay / entry,33,35,34
Apoferritin bind,?,-17%,-13%
p53 reactivator,?,5%,11%
miR-21 reporter,-47%,-32%,-23%
BRCA1 expr act,3.5µM*,48%,7.9µM*

(cont.)
41. CC(=O)c1cnc(Nc2cccc(Cl)c2Cl)s1
42. O=S(=O)(c1ccc2c(c1)CCCC2)N1CCN(c2nc(-c3ccccc3)nc3ccccc23)CC1
43. N/C(=N\OC(=O)/C=C/c1ccccc1)c1ccc(Cl)cc1
44. N/C(=N\OC(=O)/C=C/c1ccccc1)c1ccccc1
45. CN(C(=O)CC(=O)Nc1ccc2nc3n(c(=O)c2c1)CCCCC3)c1ccccc1F
46. COc1cc2c(NC3CCN(C(C)C)CC3)nc(N3CCCN(C)CC3)nc2cc1OCCOCCN1CCCC1
47. Nc1ccc2oc(=O)c3ccccc3c2c1
48. O=c1oc(=O)c2ccccc2c2ccccc12

assay / entry,41,42,43,44,45,46,47,48
Apoferritin bind,?,nt,8%,-17%,-6%,nt,-9%,nt
p53 reactivator,1%,nt,9%,?,nt,nt,4%,nt
miR-21 reporter,-51%,nt,-6%,-52%,-6%,nt,-37%,nt
BRCA1 expr act,10µM*,0%,49%,7.1µM*,35%,-58%,11µM*,-10%

Record cards, as listed above.
CC(=O)c1cnc(Nc2cccc(Cl)c2Cl)s1 is listed as Apoferritin bind = ?; p53 reactivator = 1%; miR-21 reporter = -51%; BRCA1 expr act = 10µM*
O=c1oc(=O)c2ccccc2c2ccccc12 is listed as Apoferritin bind = nt; p53 reactivator = nt; miR-21 reporter = nt; BRCA1 expr act = -10%

Remaining list, next part:
49. CC1(C)CC(=O)/C(=N/Nc2ccc(Cl)cc2)CO1
50. Cc1cccc(N/N=C2/COC(C)(C)CC2=O)c1
51. COc1ccccc1N/N=C1\COC(C)(C)CC1=O
52. CCOCCCN1C(=O)c2ccccc2CC1(C)C(=O)NC1CCCCC1 (stereo unspecified)
53. O=C(CCCC(=O)OCC(=O)c1ccc(Cl)cc1)NC1CCCCC1
54. CC(=O)Nc1ccc2c(c1)C(=O)c1ccccc1C2=O
55. O=C(COC(=O)Cn1cnc2ccccc21)Nc1ccc2c(c1)C(=O)c1ccccc1C2=O
56. Cc1ccccc1OCC(=O)Nc1ccc2c(c1)Cc1ccccc1-2

assay / entry,49,50,51,52,53,54,55,56
Apoferritin bind,-5%,-23%,0%,5%,?,-12%,-4%,-11%
p53 reactivator,20%,?,23%,nt,20%,?,?,3%
miR-21 reporter,-58%,-61%,-41%,-4%,0%,-58%,-63%,-8%
BRCA1 expr act,3.5µM*,7.9µM*,2%,nt,-8%,?,8.9µM*,?

57. O=C(COC(=O)Cn1cnc2ccccc21)Nc1ccc(Br)cc1
58. Cc1ccccc1OCC(=O)Nc1ccc2c(c1)C(=O)c1ccccc1C2=O
59. O=C(O)/C=C/C(=O)Nc1ccc2c(c1)C(=O)c1ccccc1C2=O
60. Cc1cc(=O)[nH]c2nnc(SCc3ccc(C(F)(F)F)cc3)n12
61. COc1cccc(NC(=O)Cn2c(=O)n(-c3ccccc3)c(=O)c3ccc(C(=O)NCc4ccc5c(c4)OCO5)cc32)c1
62. Cn1c2ccccc2c2ncn(CCCN3CCOCC3)c(=O)c21

assay / entry,57,58,59,60,61,62
Apoferritin bind,nt,-16%,-6%,-10%,-12%,-2%
p53 reactivator,nt,7%,18%,nt,nt,7%
miR-21 reporter,nt,-49%,-52%,-23%,-2%,-10%
BRCA1 expr act,10%,5µM*,11µM*,nt,-9%,0%
